Values quoted from earlier work in paper PMC9335916 (ACS Central Science, 2022).

Target: beta-lactoglobulin, genetic variant B (BLG) none (natural genetic variant B) (UniProt P02754)
Experiment: not stated
Conditions: cited from earlier work

For “beta-lactoglobulin, genetic variant B (BLG) none (natural genetic variant B)”, the Kd, dimer dissociation (pH 6.5) is listed as 4 µM, the Kd, dimer dissociation (pH 6.9, ionic strength of 0.13, phosphate buffer (concentration not stated)) is listed as 7 µM and the Kd, dimer dissociation (pH 7.5) is listed as 8.6 µM.
